From ChEMBL document CHEMBL1770106 (Eur J Med Chem, 2011)

Molecular target: T1, Ribosyldihydronicotinamide dehydrogenase [quinone] (Homo sapiens, UniProt P16083)
T1 sequence (P16083 whole entry): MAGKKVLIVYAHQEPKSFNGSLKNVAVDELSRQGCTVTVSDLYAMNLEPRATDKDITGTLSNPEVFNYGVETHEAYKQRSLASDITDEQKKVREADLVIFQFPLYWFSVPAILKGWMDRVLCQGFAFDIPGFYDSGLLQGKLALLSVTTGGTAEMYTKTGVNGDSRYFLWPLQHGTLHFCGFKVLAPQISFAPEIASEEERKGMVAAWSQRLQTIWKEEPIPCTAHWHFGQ
Assay: Binding affinity to low affinity melatonin (MT3) site of quinone reductase 2

COC(=O)Nc1ccc2[nH]cc(CCNC(C)=O)c2c1
IC50: 2.7 nM
